Experimental data from PubChem BioAssay AID1468 (National Center for Advancing Translational Sciences (NCATS), 2008).
The entries are a selection whose mix differs from that of the whole data set. Some tests of the compounds listed are not included; inactive here does not mean inactive elsewhere. Records with an inconclusive call do not appear. Calls of active or inactive are those of the source. Calls follow the shape of the dose curve; as a rule, active = well fitted inhibition curve with a large enough effect; inconclusive = small, poorly fitted or top-dose-only effect, or effect the other way; inactive = flat fitted curve, though single readings scatter.

Chains of the proteins cited; added tags and fusions are not shown. Residues count along the entry.
UniProt P10636, 561-689 P618L limits assumed: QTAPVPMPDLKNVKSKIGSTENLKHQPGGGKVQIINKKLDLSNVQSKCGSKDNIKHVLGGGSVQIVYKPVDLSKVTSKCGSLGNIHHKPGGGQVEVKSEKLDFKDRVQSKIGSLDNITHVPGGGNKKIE

Each compound was assayed against Microtubule-associated protein tau (Homo sapiens) (UniProt P10636) (assay: qHTS for Inhibitors of Tau Fibril Formation, Fluorescence Polarization). Settings: K18 P301L tau heparin fibrillization, Alexa594 FP, 6 h; at 57.7 µM (top of the series).
Excerpt: NIH Molecular Libraries Probe Production Network [MLPCN]
NIH Chemical Genomics Center [NCGC]
Assay Provider: Carlo Ballatore, University of Pennsylvania
The microtubule-associated protein tau is an abundant protein in the axons of neurons that stabilizes microtubules. With its ability to modulate microtubule dynamics, tau contributes directly or indirectly, to key structural and regulatory cellular functions. Particularly important is the influence tau exerts on axonal transport, which allows signaling molecules, trophic factors and other essential cellular constituents to travel along the axons. Under pathological conditions, tau becomes sequestered into insoluble aggregates called neurofibrillary tangles. This phenomenon is believed to have pathological consequences by promoting axonal transport deficits that ultimately lead to synaptic dysfunction and neuronal loss. To identify inhibitors of tau aggregation, a heparin-induced tau fibril formation assay was used that employed a recombinantly expressed fragment of tau, K18 (Q242-E372), bearing a P301L mutation (Gustke et al. 1994; Hong et al. 1998).
Gustke, N., B. Trinczek, et al. (1994). "Domains of tau protein and interactions with microtubules." Biochemistry 33(32): 9511-22.
Hong, M., V. Zhukareva, et al. (1998).
Li, W. and V. M. Lee (2006). "Characterization of two VQIXXK motifs for tau fibrillization in vitro." Biochemistry 45(51): 15692-701.
von Bergen, M., S. Barghorn, et al. (2001). "Mutations of tau protein in frontotemporal dementia promote aggregation of paired helical filaments by enhancing local beta-structure." J Biol Chem 276(51): 48165-74.
NCGC Assay Protocol Summary:
For screening, 2 uL/well human K18 P301L (15 uM unlabeled and 0.24 uM Alexa 594-labeled tau final concentrations) in reagent buffer (100 mM sodium acetate pH 7) was dispensed into black solid 1536-well plates (Grenier) using a solenoid-based dispenser. Following transfer of 23 nL compound or DMSO vehicle by a pin tool, 2 uL/well heparin (20 uM final concentration) in reagent buffer was added and the plate centrifuged 15 s at 1000 RPM. Plates were incubated 6 hr at 37 C and then 1 uL/well ThT (30 uM final concentration) was added. After a 1 hr ambient incubation, the plates were read by an Envision (Perkin Elmer) to monitor Alexa 594 FP (555 nm excitation and 632 nm emission).
Keywords: NIH Roadmap, MLPCN, MLI, MLSMR, NCGC, qHTS, tau, tauopathies, Alzheimer's disease, fibril, neurodegeneration, aggregation
% is scaled to controls: 0 for no effect and ±100 for the full control effect.
Also: nearly all actives have a fitted effect of over 55% in size.

Structure (SMILES) | activity, negative = inhibition
O=C(NCC1(N2CCCCC2)CCCCC1)c1cc([N+](=O)[O-])ccc1Cl | inactive: 2.86%
CN(C)C1(CNC(=O)c2ccccc2F)CCCCC1 | inactive: 2.44%
CN(C)C1(CNC(=O)c2cccc(Cl)c2)CCCCC1 | inactive: -1.55%
CC(C)N1C(=O)CC2(CCN(CCOC(=O)C(O)(c3ccccc3)c3ccccc3)CC2)C1=O | inactive: -5.92%
CCCCOc1ccccc1C(=O)NCC1(N(C)C)CCCCC1 | inactive: -9.78%
CN(C)C1CCCC1OC(=O)C(O)(c1ccccc1)c1ccccc1 (stereo unspecified) | inactive: 4.32%
CN(C)C1(CNC(=O)c2ccccc2[N+](=O)[O-])CCCCC1 | inactive: -10%
Cc1ccccc1C(=O)NCC1(N2CCCCC2)CCCCC1 | inactive: -2.6%
CCOc1cccc(C(=O)NCC2(N(C)C)CCCCC2)c1 | inactive: 6.73%
CCN1CCCC(OC(=O)C2(O)c3ccccc3C=Cc3ccccc32)C1 (stereo unspecified) | inactive: 8.03%
C=CCN1CCN(CCOC(=O)C(O)(c2ccccc2)c2ccccc2)CC1 | inactive: 2.73%
COc1cccc(C(=O)NCC2(N3CCCCC3)CCCCC2)c1 | inactive: 0.0116%
COc1ccc(C(=O)NCC2(N(C)C)CCCCC2)cc1Cl | inactive: 5.86%
CC(C)COc1ccc(C(=O)NCC2(N(C)C)CCCCC2)cc1 | inactive: -0.0311%
COc1cccc(C(=O)NCC2(N3CCOCC3)CCCCC2)c1 | inactive: -2.84%
O=C(OC1CN2CCC1CC2)C(CO)(c1ccccc1)c1ccccc1 (stereo unspecified) | inactive: -5.85%
CC(C)Oc1ccc(C(=O)NCC2(N(C)C)CCCCC2)cc1 | inactive: 4.72%
CN(C)c1cccc(C(=O)NCC2(N(C)C)CCCCC2)c1 | inactive: 2.5%
COc1ccc(Br)c(C(=O)NCC2(N3CCCCC3)CCCCC2)c1 | inactive: -13.1%
COc1cc(C(=O)NCC2(N(C)C)CCCCC2)cc(OC)c1OC | inactive: -0.425%
Cc1cccc(C(=O)NCC2(N(C)C)CCCCC2)c1 | inactive: -4.11%
